Earlier results on one compound are cited in paper PMC9855333, “1-(Arylsulfonyl-isoindol-2-yl)piperazines as 5-HT6R Antagonists: Mechanochemical Synthesis, In Vitro Pharmacological Properties and Glioprotective Activity” (Biomolecules, 2022).

Amino acid sequences for entries named in this document (tags omitted).
UniProt P50406, whole entry: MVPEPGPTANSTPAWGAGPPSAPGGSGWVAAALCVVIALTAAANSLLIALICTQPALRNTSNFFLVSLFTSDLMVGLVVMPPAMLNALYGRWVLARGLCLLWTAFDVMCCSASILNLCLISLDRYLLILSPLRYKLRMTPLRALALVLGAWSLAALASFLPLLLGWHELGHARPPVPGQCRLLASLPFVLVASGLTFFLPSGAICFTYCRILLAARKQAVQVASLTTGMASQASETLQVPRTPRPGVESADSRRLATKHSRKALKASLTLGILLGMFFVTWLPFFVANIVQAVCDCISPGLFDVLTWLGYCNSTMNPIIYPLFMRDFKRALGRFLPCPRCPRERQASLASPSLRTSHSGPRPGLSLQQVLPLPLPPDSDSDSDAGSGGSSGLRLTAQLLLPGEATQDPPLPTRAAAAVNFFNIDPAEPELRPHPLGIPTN

The target of this series is 5-HT6R (Homo sapiens, UniProt P50406). Also noted: expressed in transfected cells; host or cells: NG108-15 (mouse neuroblastoma x rat glioma hybrid), transient co-transfection with CAMYEL, Lipofectamine 2000. To be noted: Figure 1; cited from earlier work.

For the compound `O=S(=O)(c1cccc(Cl)c1)n1ccc2c(N[C@H]3CCNC3)nc3ccccc3c21` [CPPQ, (S)-1-[(3-chlorophenyl)sulfonyl]-4-(pyrrolidine-3-yl-amino)-1H-pyrrolo[3,2-c]quinoline], the “Functional profile at Gs” value is recorded as “Neutral antagonist”.
